Apparent affinities of Ab-91 variants for a coronavirus HR2 peptide

Target peptide (SARS-CoV-2 spike, HR2 region): PDVDLGDISGINAS

Parent: Ab-91, a human scFv built as VL, a (GGGGS)3 linker, VH. Only the CDRs of the heavy chain vary.
VL: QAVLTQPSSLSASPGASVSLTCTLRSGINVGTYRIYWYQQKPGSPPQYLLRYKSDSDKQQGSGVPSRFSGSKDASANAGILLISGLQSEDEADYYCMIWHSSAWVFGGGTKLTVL
VH: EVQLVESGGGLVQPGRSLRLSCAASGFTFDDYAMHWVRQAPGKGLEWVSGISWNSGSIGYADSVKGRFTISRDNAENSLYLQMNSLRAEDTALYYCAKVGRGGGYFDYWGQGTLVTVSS

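The parent was found by panning a naive human phage display library on the peptide. In library AAYL51, one, two or three CDR residues were substituted; doubles and triples were drawn at random. Affinity was read by AlphaSeq, a pooled yeast mating assay with surface-displayed partners. Mating (16 h, 30 °C) was followed by selection of diploids and sequencing of their barcodes. A regression on co-assayed BCL2-family reference pairs converts the normalised counts of each replicate to an apparent Kd. Each pool was mated in three replicate cultures.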

Each variant is given by its three heavy chain CDRs, as the data file delimits them; those of the parent are GFTFDDYAMH, GISWNSGSIGYADSVK, VGRGGGYFDY. Values are log10 of the apparent Kd in nM; lower means stronger binding. Where no diploid with the target was found in that replicate, the entry reads "n.d.": below detection, most likely a poor binder, though not proof of it. Background: pairings of library AAYL51 with three empty control strains gave a value in 21% of cases (median 4.54, 5th percentile 3.26). Values in that range, when seen in few replicates, are hard to tell from nonspecific mating. The control count says in how many pairings with the empty strains this scFv gave a signal, with their mean in brackets.

| CDR-H1 | CDR-H2 | CDR-H3 | log10 Kd, replicates | control signals |
|---|---|---|---|---|
| GFTFDDYAMH | GISHNSGSIGYADSVK | VGRGGGYPDY | 1.74 1.20 0.32 | 0 of 9 |
| GFTFDDYAMH | GISWNSGSIGGADSVK | VGRGSGYFDY | n.d. 4.52 n.d. | 0 of 9 |
| GFTFHEYAMH | GICWNSGSIGYADSVK | VGRGGGYFDY | n.d. n.d. n.d. | 2 of 9 (5.06) |
| GFTFDDYAMH | GISWNSGSKGYADSVK | LGRGFGYFDY | 5.68 n.d. n.d. | 1 of 9 (3.72) |
| GVTFDDYAWH | GISWNSGSIGYADSVK | VGKGGGYFDY | 5.63 n.d. 4.50 | 3 of 9 (4.69) |
| EFTFDDVAMH | GISWNSGSIGYADSVK | VGRGGGYCDY | 3.91 n.d. n.d. | 2 of 9 (4.08) |
| GFTFDDYAMH | GISWNSGSIGYEDSVK | VGWGGGYFDY | 1.82 1.88 1.89 | 0 of 9 |
| GFTFDDYAMH | EQSWNSGIIGYADSVK | VGRGGGYFDY | 4.84 n.d. 5.52 | 6 of 9 (5.18) |
| GFTFDDYKMH | GISWNSGSIGYWDSVK | MGRGGGYFDY | n.d. n.d. n.d. | 0 of 9 |
| GFDFDDYAMH | GISWNSGSIGNADSVK | YGRGGGYFDY | 5.20 4.23 4.47 | 6 of 9 (4.70) |
| GFTFDDYAMH | GISWWSGSIGYADSVK | KGRGGGYFDY | 4.82 n.d. n.d. | 0 of 9 |
| GFTFDDYAMH | DISWNSGSIGTADSVL | VGRGGGYFDY | n.d. 4.90 n.d. | 1 of 9 (4.88) |
| GFTFDDTAMH | GISWNSGSIGYADSVK | VGRKEGYFDY | n.d. n.d. n.d. | 1 of 9 (2.50) |
| GHTFDDYAMH | GISWNFGSIGYAPSVK | VGRGGGYFDY | n.d. n.d. n.d. | 2 of 9 (4.25) |
| NFTFDDYAMH | GISWNSGSIGYAVSVK | VGRGGGYFDY | 5.14 3.71 n.d. | 4 of 9 (4.20) |
| GETFDDYAMH | GIIWNSGSIGYAISVK | VGRGGGYFDY | 3.50 n.d. n.d. | 1 of 9 (4.07) |
| GFTPDDYAMH | GISWNSGSIGYANSVK | VGRGGGDFDY | n.d. 6.37 3.61 | 5 of 9 (4.70) |
| GFTFDDYAMH | GISWKSWSIGYPDSVK | VGRGGGYFDY | n.d. n.d. n.d. | 0 of 9 |
| GFRFDDYAMH | GISWNSVSIGYADSVK | VGRGGGEFDY | 3.97 n.d. 5.54 | 6 of 9 (4.61) |
| GFTFNDYAMV | GISWNSGSIGYADSVK | VGNGGGYFDY | n.d. 4.70 n.d. | 2 of 9 (3.89) |
| GFTFDDYAMH | GISWNSKSIGYAESVK | VGRGGNYFDY | n.d. 5.28 5.29 | 5 of 9 (4.74) |
| GFTFDWYAMH | GISWNSGSIGYADSVK | VGRGGGYFDY | 0.89 1.15 0.26 | 0 of 9 |
| GFTFDDYAMA | GISWNSGSIGYADSVK | VGRGGQYFDG | 4.11 n.d. 5.10 | 3 of 9 (5.05) |
| GFTFDDVAMH | GISWNSGSIGYADSVK | VGLGGGYFVY | 1.01 1.03 0.37 | 3 of 9 (4.63) |
| GFTEDDYAMG | GISWNSASIGYADSVK | VGRGGGYFDY | n.d. 5.45 5.12 | 3 of 9 (4.05) |
| GFTRDDYAMH | GISWNSGSIGYADSVK | VGRGGGYFNC | 4.21 4.61 4.66 | 3 of 9 (4.35) |
| GFTFDDYAMH | GIFWNSGSIGYADSVK | FGRGGGYLDY | n.d. n.d. n.d. | 0 of 9 |
| HFTFDDYAMH | GISWNSGSIDYADSVK | VGRGGGYFAY | n.d. n.d. n.d. | 1 of 9 (4.06) |
| GFTFDDSAMH | GIRWNSGSIGYADSVK | VGRGGAYFDY | 4.24 4.10 n.d. | 6 of 9 (4.91) |
| GFTFDDKAMH | GISWNSLSIGYADSDK | VGRGGGYFDY | 3.33 n.d. n.d. | 0 of 9 |
| GFTFDFTAMH | GISWHSGSIGYADSVK | VGRGGGYFDY | 3.02 3.23 3.99 | 7 of 9 (4.30) |
| SFTFDDYAMH | GISWNSHSIGYIDSVK | VGRGGGYFDY | n.d. n.d. n.d. | 0 of 9 |
| GFTFDDYAMH | GISKNSGSIGYADSVK | VGRGGGKFRY | 5.52 4.26 5.50 | 5 of 9 (4.67) |
| GFTFYDYAMH | GISWNSGSIGYADSPK | VGRGTGYFDY | n.d. n.d. n.d. | 1 of 9 (5.23) |
| DFTRDDYAMH | GISWNSGSIGYADGVK | VGRGGGYFDY | n.d. n.d. 4.50 | 0 of 9 |
| GFTFDQYAMH | GISWNSCSIGYADSVK | VGRGGMYFDY | 5.66 n.d. n.d. | 1 of 9 (4.19) |
| GYTFDNYAMH | GISWNSGQIGYADSVK | VGRGGGYFDY | 0.67 0.67 0.31 | 2 of 9 (4.38) |
| GITFDDYAMH | GISWNSGSIGYAFSVK | PGRGGGYFDY | n.d. n.d. n.d. | 1 of 9 (4.57) |
| GFTFDDYFMH | GISWNSGSIGYADSVK | VGRGGLYVDY | 2.85 n.d. n.d. | 0 of 9 |
| GFTFDDYAMH | GISWNSGSIGYADSVK | VGRGGGYFDN | 2.98 2.66 3.86 | 1 of 9 (4.00) |
| GFTFDDYAMH | GISWNLGSIGYVDSVK | VGRGGGYCDY | n.d. 5.49 3.86 | 1 of 9 (5.62) |
| GFTFDDYAMH | GISWNSGSIGYALSVK | DGRGGGYFDY | 2.47 2.81 1.16 | 1 of 9 (3.32) |

Picked from the list: the 5 lowest averages where every replicate gave a value.

| CDR-H1 | CDR-H2 | CDR-H3 | log10 Kd, replicates | control signals |
|---|---|---|---|---|
| GYTFDNYAMH | GISWNSGQIGYADSVK | VGRGGGYFDY | 0.67 0.67 0.31 | 2 of 9 (4.38) |
| GFTFDWYAMH | GISWNSGSIGYADSVK | VGRGGGYFDY | 0.89 1.15 0.26 | 0 of 9 |
| GFTFDDVAMH | GISWNSGSIGYADSVK | VGLGGGYFVY | 1.01 1.03 0.37 | 3 of 9 (4.63) |
| GFTFDDYAMH | GISHNSGSIGYADSVK | VGRGGGYPDY | 1.74 1.20 0.32 | 0 of 9 |
| GFTFDDYAMH | GISWNSGSIGYEDSVK | VGWGGGYFDY | 1.82 1.88 1.89 | 0 of 9 |

Data: MIT Lincoln Laboratory AlphaSeq set, Engelhart et al. 2022, doi:10.1038/s41597-022-01779-4, as distributed in FLAb.